Where two headings read alike, the source gives them in different places.
Tests used:
[1] = tested on: pERK in HCT-116 cells (KRAS G13D); assay: Phospho-ERK inhibition (AlphaLISA SureFire Ultra p-ERK 1/2), HCT116; conditions: for HCT116 pERK % Ymin: value in parentheses; for HCT116 pERK Ymin %: Ymin in brackets; for IC50: read-out: HCT116 pERK IC50
Method in brief: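 Cells in RPMI-1640 with 5% FBS were plated overnight, then exposed for 1 h to ten-point dilutions (typically 10 μM to 0.33 nM; 0.5% DMSO). Lysates were read by AlphaLISA SureFire Ultra for p-ERK1/2 Thr202/Tyr204; % inhibition used trametinib background and DMSO controls, with IC50 from four-parameter fits.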

[2] = tested on: pERK in SK-MEL30 cells (NRAS-Q61K); assay: Phospho-ERK inhibition (AlphaLISA), SK-MEL30; conditions: for SK-MEL30 pERK % Ymin: SK-MEL30, value in parentheses; for IC50: read-out: SK-MEL30 pERK IC50, SK-MEL30
Method: (§1) All cancer cell lines (A375, A101D, A2058, RKO, HT29 SK-MEL 30, IPC298, HepG2, HCT-116, Lovo, SWV620, SW480, NCI-H358, NCI-H2122, Calu-6, NCIH2087, NCIH1755, NCIH1666 and Mewo) were obtained from ATCC and cultured in RPMI-1640 medium (Gibco) supplemented with 5% heat inactivated fetal bovine serum (FBS, Wisent) at 37° C. under 5% CO2. Cells were maintained in T175 flasks (Greiner). They were passaged by removing the culture medium, washing once in 10 mL of room temperature Phosphate Buffered Saline (PBS; Wisent) and incubating at 37° C. with 2 mL of 0.05% Trypsin (Thermo-Fisher). Trypsin was then inactivated by adding complete growth medium and the cells were then replated in a T175 culture dish at the appropriate dilution. All cell lines were routinely tested for mycoplasma contamination. Tissue type and mutational status of each cell line can be found in Table B.
(§2) AlphaLISA® SureFire® Ultra™ p-ERK 1/2 (Thr202/Tyr204) analysis was conducted on cells plated in 100 μL of complete RPMI-1640 growth medium in 96-well flat-bottomed transparent dishes (Costar) at a density indicated in Table C. Cells were maintained overnight at 37° C. under 5% CO2 before treatment with compounds' dilution series for one hour. The cell density in cells/cm^2 corresponds to cell number divided by the area of one well of a 96-well plate ([…]).
(§3) In a dilution series 100 μL/well of test substance dilution prepared in complete RPMI-1640 growth media was added to the cells. The dilution series is selected so that ten concentrations cover a range from 10 μM to 0.33 nM. If necessary the initial concentration of 10 μM is increased to 100 μM or lowered to 1 μM (as in the case of A375 and H1666 cells, which are generally more sensitive to the compounds) and further dilution is carried out accordingly. The final concentration of DMSO in the assay is set at 0.5%.
(§4) After treatment, media was removed and cells were lysed in 50 μL of 1× AlphaScreen Ultra Lysis Buffer (Perkin Elmer). The AlphaLISA® SureFire® Ultra™ p-ERK 1/2 (Thr202/Tyr2O4) (PerkinElmer) reactions were performed with 5 μL of cell lysate according to the manufacturer's specifications in 384-well proxyplates (Perkin Elmer) followed by overnight incubation of the reactions at room temperature in a humidified chamber. After completion of the reactions, the signals were recorded on an EnVision plate reader (Perkin Elmer) using built in AlphaLISA® settings.
(§5) The effect of each compound dilution on the pERK signal was expressed in % inhibition and calculated as follows. An internal 100% inhibition control (1 M trametinib, cat #HY-10999; MedChem Express; CAS #871700-17-3) was included in each plate and used as a measure of pERK background. First, the value obtained for trametinib was subtracted from each data point. The average of DMSO (vehicle) controls (set as 0% inhibition) was established and used to calculate % inhibition: % inhibition=100*(1-((pERK signalcompound)/(pERK signalDMSO)))
(§6) The ability of each compound to inhibit pERK signal was expressed as an IC50 value obtained by plotting the inhibition values for each data point of a dilution series and fitting the obtained curves using a log(agonist) versus response-variable slope (four parameters) function using GraphPadPrism (V7.0) or Dotmatics Screening Ultra platform.
(§7) When present, paradoxical pERK induction is inferred from the negative % inhibition values observed in the pERK IC50 curves of a compound.

[3] = tested on: pERK in NCI-H2122 cells (KRAS-G12C); assay: Phospho-ERK inhibition (AlphaLISA), NCI-H2122; conditions: for NCI-H2122 pERK % Ymin: NCI-H2122, value in parentheses; for IC50: read-out: NCI-H2122 pERK IC50, NCI-H2122
Method: as §1, §2, §3, §4, §5, §6, §7

[4] = tested on: pERK in NCIH1755 cells (BRAF G469A); assay: Phospho-ERK inhibition (AlphaLISA), NCIH1755; conditions: for NCIH1755 pERK % Ymin: NCIH1755, value in parentheses; for IC50: read-out: NCIH1755 pERK IC50, NCIH1755
Method: as §1, §2, §3, §4, §5, §6, §7

[5] = tested on: A2058 cells (BRAF V600E); assay: Proliferation inhibition (CellTiter-Glo), A2058; conditions: read-out: A2058 Prolif. EC50; A2058, 3 days
Method: as §1
(§8) CellTiter-Glo® viability analysis was conducted on cells plated in 100 μL of complete RPMI-1640 growth medium in 96-well flat-bottomed white opaque plates (Greiner or Croning) at a density indicated in Table E (for each CCL, number of cells plated per well of a 96-well plate to perform the CellTiter-Glo® cell viability assay). The cell density in cells/cm^2 would correspond to cell number divided by the area of one well of a 96-well plate (0.32 cm^2). Cells were maintained overnight at 37° C. under 5% CO2 before treatment with compounds' dilution series for 3 days.
(§9) In a dilution series 100 μL/well of test substance dilution prepared in complete RPMI-1640 growth media was added to the cells plated initially in 100 μL of growth media. The dilution series is selected so that ten concentrations cover a range from 10 μM to 0.33 nM. If necessary (as in the case of A375 cells, which were more sensitive to the compounds) the initial concentration of 10 μM is lowered to 1 μM and further dilution is carried out accordingly. The final concentration of DMSO in the assay is set at is 0.5%.
(§10) After 3 days of incubation, the growth media were removed by aspiration and 60 μL of diluted CellTiter-Glo® reagent (10 μL CellTiter-Glo® reagent+50 μL of PBS) was added to each well. Cells were allowed to lyse and to equilibrate in CellTiter-Glo® reagent by 5 min incubation on a plate shaker followed by 10 min incubation at room temperature. Luminescence signals were then acquired on a Synergy Neo2 plate reader (Biotek).
as §5, with “proliferation of cancer cell lines” for “pERK signal”, “μM of trametinib;” for “M trametinib,”, “CellTiter-Glo® signal” for “pERK”, “The” for “First, the”, “inhibition=100*(1−((CellTiter-Glo® signalcompound)/(CellTiter-Glo®” for “inhibition=100*(1-((pERK signalcompound)/(pERK”
as §6, with “proliferation” for “pERK signal”, “a EC50” for “an IC50”, “effect” for “inhibition”

[6] = tested on: Mewo cells (NF1 LOF); assay: Proliferation inhibition (CellTiter-Glo), Mewo; conditions: read-out: Mewo Prolif. EC50, 3 days
Method: as §1, §8, §9, §10
as §5, with “proliferation of cancer cell lines” for “pERK signal”, “μM of trametinib;” for “M trametinib,”, “CellTiter-Glo® signal” for “pERK”, “The” for “First, the”, “inhibition=100*(1−((CellTiter-Glo® signalcompound)/(CellTiter-Glo®” for “inhibition=100*(1-((pERK signalcompound)/(pERK”
as §6, with “proliferation” for “pERK signal”, “a EC50” for “an IC50”, “effect” for “inhibition”

[7] = HCT116 cells, class symbol before the bracket

| IC50 ([1]; HCT116, Table D) | IC50 [1, 7] | IC50 [2] | IC50 [3] | IC50 [4] | HCT116 pERK % Ymin (lowest value of the IC50 curve) ([1]; HCT116 cells, Ymin above −20% = minimal or no paradoxical activation) | IC50 ([1]; HCT116 cells) | SMILES | HCT116 pERK % Ymin ([1]; HCT116, Table D) | HCT116 pERK Ymin % ([1]; HCT116 cells) | SK-MEL30 pERK % Ymin [2] | NCI-H2122 pERK % Ymin [3] | NCIH1755 pERK % Ymin [4] | EC50 [5] | EC50 [6] |
| --- | --- | --- | --- | --- | --- | --- | --- | --- | --- | --- | --- | --- | --- | --- |
| 30 to 300 nM | < 500 nM | 30 to 300 nM | 30 to 300 nM | < 30 nM | – | – | Cc1c(F)cccc1S(=O)(=O)Nc1ccc(F)c(Nc2ncnc3ccc(-n4cnc5c(-c6cccnc6)cccc54)nc23)c1F | −6.3% | −6.3% | 9% | 3% | −2% | < 30 nM | 300 to 3000 nM |
| 30 to 300 nM | – | < 30 nM | 30 to 300 nM | < 30 nM | −9% | < 500 nM | O=S(=O)(Nc1ccc(F)c(Nc2ncnc3ccc(-n4cnc5c(N6CCC(O)(C(F)(F)F)CC6)cccc54)nc23)c1F)c1cccc(Cl)c1Cl | −9% | – | 6% | 21% | −7% | < 30 nM | < 30 nM |
| 30 to 300 nM | < 500 nM | < 30 nM | 30 to 300 nM | < 30 nM | – | – | Cc1c(Cl)cccc1S(=O)(=O)Nc1ccc(F)c(Nc2ncnc3ccc(-n4cc(C(=O)N5CCN(C)CC5)c5ccccc54)nc23)c1F | −8.9% | −7.6% | 8% | 5% | 25% | < 30 nM | 300 to 3000 nM |

Source: US12139488B2, “Pyrido[3,2-d]pyrimidine compounds uses thereof for treating a proliferative disease” (Universite de Montreal, priority 2021, dated 2024)
